Apparent affinities of Ab-14 variants for a coronavirus HR2 peptide

Data: MIT Lincoln Laboratory AlphaSeq set, Li et al. 2023, doi:10.1038/s41467-023-39022-2, as distributed in FLAb.

All variants were tested on one target, the spike HR2 peptide PDVDLGDISGINAS (SARS-CoV-2).

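Phage display of a naive human antibody library on the peptide gave the parent. Designed CDR sequences, proposed from the first random library and measured here. Several design methods are mixed in this list. The scFvs were displayed on barcoded MATa yeast, the peptide on MATalpha yeast. Binding brings cells together so that they mate, and sequencing counts the barcode pairs among the diploids. The ratio of observed to expected reads was calibrated, replicate by replicate, on BCL2-family standards whose Kd was known from biolayer interferometry. Each pool was mated in six replicate cultures.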

Parent scFv Ab-14: VH joined to VL by the linker GGGGSGGGGSGGGGS. Changes lie in the heavy chain CDRs alone.
VH: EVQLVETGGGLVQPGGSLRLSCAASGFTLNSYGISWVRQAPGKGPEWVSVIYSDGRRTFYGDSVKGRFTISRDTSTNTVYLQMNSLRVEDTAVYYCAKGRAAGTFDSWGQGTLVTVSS
VL: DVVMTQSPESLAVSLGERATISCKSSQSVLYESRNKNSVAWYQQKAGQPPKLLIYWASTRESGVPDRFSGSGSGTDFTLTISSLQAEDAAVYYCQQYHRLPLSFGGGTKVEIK

Each variant is given by its three heavy chain CDRs, as the data file delimits them; those of the parent are GFTLNSYGIS, VIYSDGRRTFYGDSVK, GRAAGTFDS. Numbers give log10(Kd / nM), so 0 is 1 nM and 3 is 1 µM. Smaller is tighter. Replicates are averaged; those with no signal do not enter the mean. An entry "no signal" has no value in the source: the pair was not observed among the diploids in any replicate. This suggests poor binding but is not conclusive. Nonspecific signal, from three strains lacking the peptide, appeared in 1% of pairings of all heavy chain designs, centred on 2.08 (5% of these signals below 0.84); values are not corrected for it. Of ten entries with the parent sequence, four were seen in most replicates (averages 0.34 to 2.37), three in one and three in none, so single entries are noisy. The authors' rule: three or more of the six replicates give a measured affinity, fewer mean a poor binder. The range of this assay differs from that of the first round, and the authors advise against merging the two.

mean, log10 nM	seen in	CDR-H1	CDR-H2	CDR-H3
-0.21	6 of 6	GFELNSYGIS	VIYSDGRRTFYADDVK	GSTAGTFDS
0.66	6 of 6	GFALNSYGIS	VIYSDGRRTFYADSVK	GNAAGTFDS
-0.70	6 of 6	GFDLNEYGIS	VIYADGMRKAYADSVK	GETAGTFDV
0.16	6 of 6	GFTLNDYGIS	VIYSDGRRTFYHDSVK	GRVAGTFDS
no signal	0 of 6	GFTLESYGIS	VIYADGRRTFYGDCVK	GRAAGTFKS
1.02	6 of 6	GFELNTYGIS	VIYSDGRRTFYGDSVK	GRQAGTFDS
0.26	6 of 6	GFDLDEYGIS	VIYADGMRTAYADSVK	GNQAGTFDL
1.44	1 of 6	GFDLNEYGIS	VIYADGQRTAYADSVK	GNEAGTFDM
-0.01	6 of 6	GFNLNEYGIS	VIYADGMRTFYGDSVK	GRAAGTFDH
0.50	6 of 6	GFELNTYGIS	VIYSDGRRTFYSDSVK	GEAAGTFDS
1.98	5 of 6	GFNLNSYGIS	VIYSDGRRTFYTDSVK	GEAAGTFDS
0.56	3 of 6	GFDLNSYGIS	VIYSDGRRTFYIDSVK	GRAAGTFND
no signal	0 of 6	GFTLNQYGIS	VIYSDHRRTFYSDSVK	GRAAGFFDS
-0.58	5 of 6	GFDLNEYGIS	VIYADGMRTAYAQDVK	GNVAGTFDV
1.80	6 of 6	GETLNDYGIS	VIYSDGRRTMYIDSVK	GRAAGTFDS
0.23	6 of 6	GFDLDEYGIS	VIYADGRRTFYQDSVK	GQAAGTFDL
0.22	6 of 6	GFSLNSYGIS	VIYSDGRRTFYADQVK	GRTAGTFDK
1.03	5 of 6	GFDLAEYGIS	VIYADGMRNAYATNVK	GYFGGNIMY
-1.19	6 of 6	GFDLDEYGIS	VIYADGMRTAYADSVK	GQVAGTFDI
-1.04	6 of 6	GFSLKSYGIS	VIYADGRRTFYGDNVK	GRAAGTFDS
no signal	0 of 6	GFQLNDYGIS	VIYSDGRRTFYIDRVK	GKAAGTFDS
no signal	0 of 6	GFSLDEMGIS	VIYADGQRTAYVDNVK	SVQGVVVFL
no signal	0 of 6	GFQLDEQGIS	VIYADGVRCSYAQKVK	GANSGVIDV
no signal	0 of 6	GFTLNEYGIS	VIYSDGRRTFYHDSVK	GRQAGTFDS
2.41	5 of 6	GFDIEDFGIS	VIYADGKRSAYSNSVK	GLMAGTMGY
-0.79	6 of 6	GFDLDEYGIS	VIYADGQRTAYADSVK	GQNAGTFDI
-0.48	6 of 6	GFDLNEYGIS	VIYADGVRTAYADSVK	GNVAGTFDV
2.49	1 of 6	GFTLNSYGIS	VIYSDGRRTFYSDSVK	GRRKKTFDL
0.59	6 of 6	GFTLESYGIS	VIYSDGKRTFYGDKVK	GRTAGTFDS
1.52	5 of 6	GFWLNSYGIS	VIYSDGRRTFYSDSVK	GRAAGTFDS
0.90	6 of 6	GFTLNSYGIS	VIYSDGRRTFYGDDVK	GQTAGTFDS
1.49	1 of 6	GFTLNSYGIS	VIYSDGRRTFYGDSVK	GMAAGTFDL
0.82	6 of 6	GFDLNMYGIS	VIYSDGRRTFYGDSVK	GEAAGTFDK
-1.04	6 of 6	GFDLNEYGIS	VIYADGKRTAYSDSVK	GGNAGTFDS
no signal	0 of 6	KSTLNELGIS	VIYSDGRRTFYTDSVK	GRCAGTFDS
-0.22	6 of 6	GFDLNEYGIS	VIYADGQRTAYADSVK	GQNAGTFDT
-0.51	6 of 6	GFDLNEYGIS	VIYADGKRTAYSDSVK	GGVAGTFDV
no signal	0 of 6	GFTLNQYGIS	VIYSDGRRNFYSDSVK	GRAAGFFDS
0.10	6 of 6	GFDLDEYGIS	VIYADGMRTAYTDSVK	GENAGTFDL
no signal	0 of 6	GFTLDSYGIS	VIYADGRRTFYGDSVK	GRAAGTFWS
-0.78	6 of 6	GFNLNEYGIS	VIYADGRRKFYADSVK	GNTAGTFDI
no signal	0 of 6	GFGLDEYGIS	VIYADGQRKSYTDDVK	GSYTNKKGI
1.35	1 of 6	GFNLNSYGIS	VIYSDGRRTFYADSVK	GKTAGTFDC
no signal	0 of 6	GFDIEEYGIS	VIYADGVRAMYSSNFK	GKIAGTGLT
1.86	6 of 6	GFTLNMYGIS	VIYSDGLRTFYGDSVK	GRAAGTFDS
-0.42	6 of 6	GFDLNEYGIS	VIYADGMRQAYADDVK	GNNAGTFDV
0.52	6 of 6	GFSLNSYGIS	VIYADGRRTFYGDSVK	GRAAGTFKS
-0.19	6 of 6	GFDLNEYGIS	VIYADGMRTYYADSVK	GNEAGTFDV
-0.18	6 of 6	GFDLNEYGIS	VIYADGRRTAYTDSVK	GNVAGTFDL
-0.68	6 of 6	GFDLNEYGIS	VIYADGRRTFYADSVK	GEIAGTFDM
no signal	0 of 6	GFTLNLYGIS	VIYSDGYRTMYGDSVK	GRAAVTFDS
2.91	1 of 6	GTSLNSYGSS	VIYSDGRRTFYADSVK	GFAATSFDS
no signal	0 of 6	GFTLNSYGIS	VIYSDGMRNFYSDSVK	GRNAGWFTS
0.28	6 of 6	GFSLDEYGIS	VIYADGVRQAYQDSVK	GQWHGTFNY
no signal	0 of 6	GFQLNDYGIS	VIYSDGRRTFYIDKVK	GKAAGTFDS
0.05	6 of 6	GFDLNSYGIS	VIYSDGRRTFYIDSVK	GKTAGTFDS
0.92	3 of 6	PFDLNSYGIS	VIYSDGRRTFYHDSVK	GRTAGTFDS
0.97	6 of 6	GFELNSYGIS	VIYSDGRRTFYIDSVK	GQVAGTFDS
1.27	6 of 6	GFNLNSYGIS	VIYSDGRRTFYQDKVK	GRQAGTFDS
0.72	6 of 6	GFQLNSYGIS	VIYSDGRRTFYVDSVK	GRTAGTFDS
1.24	5 of 6	GFSIDEYGIS	VIYADGLRQHYTNAVK	GEAAGTLDM
no signal	0 of 6	GFDLNEFGIS	VIYADGLQTFYTDNVK	GGNQGTFVI
-0.48	6 of 6	GFDLNEYGIS	VIYADGRRTFYADSVK	GNQAGTFNV
0.50	6 of 6	GFTLNSYGIS	VIYSDGKRTFYSDSVK	GRQAGTFDS

For reference, 7 entries of the list once more:

{"CDR-H1": "GFTLNQYGIS", "CDR-H2": "VIYSDHRRTFYSDSVK", "CDR-H3": "GRAAGFFDS", "mean, log10 nM": "no signal", "seen in": "0 of 6"}
{"CDR-H1": "GFDLNMYGIS", "CDR-H2": "VIYSDGRRTFYGDSVK", "CDR-H3": "GEAAGTFDK", "mean, log10 nM": "0.82", "seen in": "6 of 6"}
{"CDR-H1": "GFTLNSYGIS", "CDR-H2": "VIYSDGKRTFYSDSVK", "CDR-H3": "GRQAGTFDS", "mean, log10 nM": "0.50", "seen in": "6 of 6"}
{"CDR-H1": "GFTLNEYGIS", "CDR-H2": "VIYSDGRRTFYHDSVK", "CDR-H3": "GRQAGTFDS", "mean, log10 nM": "no signal", "seen in": "0 of 6"}
{"CDR-H1": "GFDLNEYGIS", "CDR-H2": "VIYADGMRTYYADSVK", "CDR-H3": "GNEAGTFDV", "mean, log10 nM": "-0.19", "seen in": "6 of 6"}
{"CDR-H1": "GFNLNEYGIS", "CDR-H2": "VIYADGRRKFYADSVK", "CDR-H3": "GNTAGTFDI", "mean, log10 nM": "-0.78", "seen in": "6 of 6"}
{"CDR-H1": "GFDLDEYGIS", "CDR-H2": "VIYADGRRTFYQDSVK", "CDR-H3": "GQAAGTFDL", "mean, log10 nM": "0.23", "seen in": "6 of 6"}